## OPERA 2.9 data: melting point values

Data: OPERA 2.9 data sets, kmansouri/OPERA on GitHub.

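These are experimental values that the OPERA curators gathered from public databases to train and test their QSAR models. One number stands for a compound and property, with no spread given. Conditions of the individual experiments are not part of the data. The measured form (salt, isomer or mixture) is not always the one drawn. Some upstream entries may be estimates or bounds without being marked so.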

The melting point is given in degrees Celsius.
Cells with "–" have no entry in this list.

compound	name	melting point (°C)
O=C(O)c1ccc2c(c1Cl)C(=O)c1ccccc1C2=O	–	200
Cc1cc(C)n(CC(=O)NN)n1	2-(3,5-dimethyl-1H-pyrazol-1-yl)acetohydrazide	103
O=Cc1csc(-c2cccc(Br)c2)n1	2-(3-Bromophenyl)-1,3-thiazole-4-carbaldehyde	100
CC(C)(C)c1cc(CCC(=O)NCCCNC(=O)CCc2cc(C(C)(C)C)c(O)c(C(C)(C)C)c2)cc(C(C)(C)C)c1O	–	177.4
CCOC(=O)c1ccc([N+](=O)[O-])o1	2-Furoic acid, 5-nitro-, ethyl ester	99.5
O=C(CCl)Nc1nc2ccc(F)cc2s1	2-Chloro-N-(6-fluoro-1,3-benzothiazol-2-yl)acetamide	171
CC(C)(C)NS(=O)(=O)c1cccc(N)c1	3-Amino-N-tert-butylbenzene-1-sulfonamide	138
CCN(CC)S(=O)(=O)c1ccc(C(C)=O)cc1	4-acetyl-N,N-diethylbenzenesulfonamide	82
CCOc1ccc(S(N)(=O)=O)cc1	4-ethoxybenzenesulfonamide	153
CS(=O)(=O)c1ccc(F)c(C(=O)O)c1	2-Fluoro-5-(methanesulfonyl)benzoic acid	192.5
C1=Nc2ccccc2OCC2(COc3ccccc3N=1)COc1ccccc1N=C=Nc1ccccc1OC2 (stereo not drawn)	–	231
COc1ccc(OC)c(NC(=O)CCl)c1	Acetanilide, 2-chloro-2',5'-dimethoxy-	170
N#Cc1ccc(N=C(N)N)cc1	N''-(4-Cyanophenyl)guanidine	221.2
O=C(CCl)N1CCc2ccccc21	2-Chloro-1-(2,3-dihydro-1H-indol-1-yl)ethan-1-one	119
ClCc1nnc(-c2ccccc2Cl)o1	2-(Chloromethyl)-5-(2-chlorophenyl)-1,3,4-oxadiazole	92
CC(=O)[O-].CC[P+](c1ccccc1)(c1ccccc1)c1ccccc1	Ethyltriphenylphosphonium acetate	79.8
CCCCCCCCCCCCCCCC[N+](C)(C)CC(=O)OCC.[Cl-]	–	177.4
CN(C)C(=O)Cc1ccc(N)cc1	2-(4-Aminophenyl)-N,N-dimethylacetamide	98
COC(=O)c1ccc2c(c1)C(C)(C)C(=CC=C1C(=O)N(c3ccccc3)N=C1C)N2C	–	227.4
O=C(O)CCNc1ccccc1[N+](=O)[O-]	3-[(2-nitrophenyl)amino]propanoic acid	145
Cc1ccccc1OCC(=O)NN	2-(2-methylphenoxy)acetohydrazide	121
Nc1nnc(C2CCCCC2)o1	5-Cyclohexyl-1,3,4-oxadiazol-2-amine	223
COc1cc(OC)nc(Sc2cccc3c2C(=O)OC3C)n1 (stereo not drawn)	Pyriftalid	163
COc1ccc(NC(=O)[C@@H]2C[C@H](C)CC[C@H]2C(C)C)cc1	–	178.4
CCOc1ncc(C)c2c1C(c1ccc(C#N)cc1OC)C(C(N)=O)=C(C)N2 (stereo not drawn)	–	224.4
CC(C)C(=O)OCCc1ccccc1	2-Phenylethyl 2-methylpropanoate	-55.16
COC(=O)N1c2ccccc2C=C(OC)c2ccccc21	Methyl 10-methoxy-5H-dibenz[b,f]azepine-5-carboxylate	147
CCCCCCCCCCCC(=O)OC[C@H](O)[C@@H](O)[C@H](O)[C@H](O)CO	D-Glucitol monolaurate	70.9
CCCn1cc[nH]c1=S	1-propyl-1H-imidazole-2-thiol	120
Cc1cc(C)c2c(=O)[nH][nH]c2n1	4,6-Dimethyl-1,2-dihydro-3H-pyrazolo[3,4-b]pyridin-3-one	250
CN(C)CCCNS(=O)(=O)c1ccc(Cl)c([N+](=O)[O-])c1	–	99
CCOCCCNS(=O)(=O)c1ccc(Oc2cc(O)c3c(c2N)C(=O)c2ccccc2C3=O)cc1	–	147
Oc1ccc(SCCC(F)(F)C(F)(F)C(F)(F)C(F)(F)C(F)(F)C(F)(F)C(F)(F)C(F)(F)F)cc1	4-(1H,1H,2H,2H-Perfluorodecylthio)phenol	92.5
CC(=O)Nc1ccc(C)c(N)c1	Acetamide, N-(3-amino-4-methylphenyl)-	135
O=C(F)c1cc(Cl)c(F)c(Cl)c1F	3,5-Dichloro-2,4-difluorobenzoyl fluoride	-14
Cc1[nH]c(C(=O)O)c(C)c1C(=O)O	3,5-dimethyl-1H-pyrrole-2,4-dicarboxylic acid	245
CN1CCCC(n2nc(Cc3ccc(Cl)cc3)c3ccccc3c2=O)CC1 (stereo not drawn)	Azelastine	225
COCCCNc1nc(NCCCOC)c(N=Nc2sc(C(=O)OC)c(C)c2C#N)c(C)c1C#N	–	218.1